# Laboratory results as given in US4254127A, “1,3-Dihydro-1-[(1-piperidinyl)alkyl]-2H-benzimidazol-2-one derivatives” (Janssen Pharmaceutica, N.V., priority 1980, dated 1981).
# Test system: norepinephrine-induced mortality
# Assay: combined test in rats: norepinephrine (NOR)-induced mortality
# Conditions: s.c., norepinephrine 1.25 mg/kg i.v. at 120 minutes, dose protecting 50% of animals
row,SMILES,ED50 (NOR)-rat
1,"Cc1ccc2c(c1)[nH]c(=O)n2CCN1CCC(CC(=O)c2ccc(F)cc2)CC1 [5-CH3, H, H, (CH2)2, CO, 4-FC6 H4, base]",1.25 mg/kg
2,"CC(CCn1c(=O)[nH]c2ccccc21)N1CCC(CC(=O)c2ccc(F)cc2)CC1 (centres unmarked) [H, H, H, [drawing 21], CO, 4-FC6 H4, base, 1-[3-[4-[2-(4-fluorophenyl)-2-oxoethyl]-1-piperidinyl]butyl]-1,3-dihydro-2H-benzimidazol-2-one]",0.31 mg/kg
3,"O=C(CC1CCN(CCn2c(=O)[nH]c3cc(F)ccc32)CC1)c1ccc(F)cc1 [5-F, H, H, (CH2)2, CO, 4-FC6 H4, base]",2.5 mg/kg
4,"O=C(CC1CCN(CCCn2c(=O)[nH]c3ccccc32)CC1)c1ccc(F)cc1 [H, H, H, (CH2)3, CO, 4-FC6 H4, base, 1-[3-[4-[2-(4-fluorophenyl)-2-oxoethyl]-1-piperidinyl]propyl]-1,3-dihydro-2H-benzimidazol-2-one]",0.16 mg/kg
5,"O=C(CC1CCN(CCn2c(=O)[nH]c3ccccc32)CC1)c1ccc(F)cc1 [H, H, H, (CH2)2, CO, 4-FC6 H4, base, 1-[2-[4-[2-(4-fluorophenyl)-2-oxoethyl]-1-piperidinyl]ethyl]-1,3-dihydro-2H-benzimidazol-2-one]",2.5 mg/kg
